This assay addresses Proteasome Macropain subunit MB1 (Homo sapiens, UniProt P28074). In words: Inhibition of 20S proteasome beta5 subunit (unknown origin) using Suc-LLVY-AMC as flurogenic substrate measured after 1 hr by fluorescence based analysis.

The chains behind the UniProt entries cited, without tags or fusion partners. Where a name states a change or a piece, a line headed by the entry shows the natural chain unless it says otherwise.
UniProt P28074: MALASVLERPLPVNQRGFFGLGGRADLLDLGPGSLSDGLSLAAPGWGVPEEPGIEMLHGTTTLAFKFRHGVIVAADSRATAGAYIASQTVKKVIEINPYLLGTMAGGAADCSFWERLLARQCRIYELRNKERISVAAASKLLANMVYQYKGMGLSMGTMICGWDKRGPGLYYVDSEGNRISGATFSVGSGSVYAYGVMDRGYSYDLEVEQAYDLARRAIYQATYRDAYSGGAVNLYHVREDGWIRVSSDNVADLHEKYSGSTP

`CC(C)C[C@H](NC(=O)CNC(=O)c1cc(Cl)ccc1Cl)B(O)O` [IXAZOMIB] showed an IC50 of 2.88 nM.
